Assay results: patent US7375074B2, “Body weight gain inhibitor” (priority 2001, dated 2008)

Sequences of proteins named here, by UniProt entry; tags and fusion partners are left off. A change or cut given only in a name is not applied to a line headed by its entry.
UniProt P48146: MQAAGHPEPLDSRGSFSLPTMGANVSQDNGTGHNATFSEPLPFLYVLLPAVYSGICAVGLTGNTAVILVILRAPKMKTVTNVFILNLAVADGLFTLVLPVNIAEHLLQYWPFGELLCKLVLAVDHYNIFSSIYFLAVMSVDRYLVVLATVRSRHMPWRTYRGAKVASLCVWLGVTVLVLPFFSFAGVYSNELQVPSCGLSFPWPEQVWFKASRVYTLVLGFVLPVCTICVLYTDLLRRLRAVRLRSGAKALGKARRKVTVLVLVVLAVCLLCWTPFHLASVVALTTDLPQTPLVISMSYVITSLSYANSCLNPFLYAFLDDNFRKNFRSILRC

Experiments:
[1] = molecular target: T1, GPR8 (Homo sapiens, UniProt P48146); experiment: Inhibiting activity of intracellular cAMP production, GPR8 expressing CHO cells; assay type: cell-based; set-up: expressed in transfected cells; host or cells: CHO dhfr- cells, plasmid pAKKO-GPR8, mainly clone #17; details: forskolin
Description: The CHO/GPR8 cells prepared in Reference Example 4 and mock CHO cells were inoculated on a 24-well plate in 5×10^4 cells/well followed by cultivation for 48 hours. The cells were then washed with Hanks' buffer (pH 7.4) containing 0.2 mM 3-isobutyl-methylxanthine, 0.05% BSA and 20 mM HEPES (hereinafter Hanks' buffer (pH 7.4) containing 0.2 mM 3-isobutyl-methylxanthine, 0.05% BSA and 20 mM HEPES is referred to as a reaction buffer). Thereafter, 0.5 ml of the reaction buffer was added to the system, which was kept in the incubator for 30 minutes. The reaction buffer was removed and 0.25 ml of a fresh reaction buffer was added to the cells. […] The amount of cAMP in the extract was measured using cAMP EIA kit (Amersham Pharmacia Biotech).
The hGPR8L(1-23), which was synthesized in Reference Example 12, was brought into contact with the GPR8 expressing CHO cells at various concentrations by the method described in Reference Example 5, and an inhibiting activity of intracellular cAMP production was measured. […]
The hGPR8L(1-30), which was synthesized in Reference Example 13, was brought into contact with the GPR8 expressing CHO cells at various concentrations by the method described in Reference Example 5, and an inhibiting activity of intracellular cAMP production was measured. […]

[2] = molecular target: T1, GPR8; experiment: Promoting activity to GTPγS binding, membrane fraction of GPR8 expressing CHO cells; assay type: biochemical; set-up: expressed in transfected cells; host or cells: CHO dhfr- cells, plasmid pAKKO-GPR8, mainly clone #17; details: various concentrations
[3] = molecular target: T2, TGR26 (Rattus norvegicus, UniProt Q56UD9); experiment: Promoting activity for GTPγS binding, membrane fraction of TGR26 expressing CHO cells; assay type: biochemical
T2 construct: treated with restriction enzymes ClaI and SpeI, and the insert encoding TGR26 was excised; expressed in transfected cells; host or cells: CHO dhfr- cells, plasmid pAK-rGPR7; membrane fraction
T2 sequence (Q56UD9 1-329): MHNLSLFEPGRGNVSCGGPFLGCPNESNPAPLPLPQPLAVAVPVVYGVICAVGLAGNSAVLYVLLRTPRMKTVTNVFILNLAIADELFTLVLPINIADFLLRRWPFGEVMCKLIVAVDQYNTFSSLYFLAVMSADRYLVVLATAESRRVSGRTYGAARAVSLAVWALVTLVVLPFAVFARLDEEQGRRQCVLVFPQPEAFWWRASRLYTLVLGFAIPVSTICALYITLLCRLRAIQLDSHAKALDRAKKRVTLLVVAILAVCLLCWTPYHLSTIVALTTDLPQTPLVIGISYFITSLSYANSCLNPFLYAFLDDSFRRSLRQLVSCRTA
Description: Promoting activity for [^35S]-guanosine 5′-(γ-thio) triphosphate (GTPγS) binding to a membrane fraction of TGR26 expressing cells was assayed in accordance with the following method.
To 1×10^8 of TGR26 expressing CHO cells, 10 ml of homogenating buffer (10 mM NaHCO3, 5 mM EDTA, 0.5 mM PMSF (phenylmethylsulfonyl fluoride), 1 μg/ml Pepstatin, 4 μg/ml E-64, 20 μg/ml Leupeptin) was added, and the cells were disrupted using Polytron (12,000 rpm, 1 minute). Supernatant was obtained from the disrupted cell suspension by centrifugation (1,000 g, 15 minutes). Further, the supernatant was ultracentrifuged (Beckman Type 30 rotor, 30,000 rpm, 1 hour), and precipitate obtained was kept as a membrane fraction of TGR26 expressing CHO cells.
The membrane fraction of TGR26 expressing CHO cells was diluted with membrane dilution buffer (50 mM Tris HCl buffer (pH7.4), 5 mM MgCl2, 150 mM NaCl, 1 μM GDP, 0.1% BSA) to prepare a cell membrane fraction solution for assay at 30 μg/ml of protein concentration. To 200 μl of membrane fraction solution for assay, 2 μl of 50 nM [^35S]-guanosine 5′-(γ-thio) triphosphate (NEN) and 2 μl of sample/DMSO solution having an appropriate concentration were added. Then the mixture was incubated at 25° C. for one hour. […] Finally, a radioactivity on the filter was determined by liquid scintillation counter. […]

| Compound | inhibiting activity of intracellular cAMP production (in words) [1] | promoting activity to GTPγS binding (in words) [2] | promoting activity of GTPγS binding (in words) [3] |
| --- | --- | --- | --- |
| CSCC[C@H](NC(=O)[C@H](CC(C)C)NC(=O)[C@H](CC(C)C)NC(=O)CNC(=O)[C@H](C)NC(=O)[C@H](C)NC(=O)[C@H](CCCNC(=N)N)NC(=O)CNC(=O)[C@@H](NC(=O)[C@@H](NC(=O)[C@H](Cc1c[nH]cn1)NC(=O)[C@H](Cc1ccc(O)cc1)NC(=O)[C@H](CCCNC(=N)N)NC(=O)[C@@H]1CCCN1C(=O)[C@H](CO)NC(=O)[C@H](C)NC(=O)[C@@H](NC(=O)[C@H](Cc1c[nH]cn1)NC(=O)[C@H](CCCCN)NC(=O)[C@H](Cc1ccc(O)cc1)NC(=O)[C@@H](N)Cc1c[nH]c2ccccc12)C(C)C)[C@@H](C)O)C(C)C)C(=O)NCC(=O)N[C@@H](CC(C)C)C(=O)O [hGPR8L(1-23)] | apparently inhibited intracellular cAMP production | apparently promoted to GTPγS binding | apparently promoted GTPγS binding |
| CSCC[C@H](NC(=O)[C@H](CC(C)C)NC(=O)[C@H](CC(C)C)NC(=O)CNC(=O)[C@H](C)NC(=O)[C@H](C)NC(=O)[C@H](CCCNC(=N)N)NC(=O)CNC(=O)[C@@H](NC(=O)[C@@H](NC(=O)[C@H](Cc1c[nH]cn1)NC(=O)[C@H](Cc1ccc(O)cc1)NC(=O)[C@H](CCCNC(=N)N)NC(=O)[C@@H]1CCCN1C(=O)[C@H](CO)NC(=O)[C@H](C)NC(=O)[C@@H](NC(=O)[C@H](Cc1c[nH]cn1)NC(=O)[C@H](CCCCN)NC(=O)[C@H](Cc1ccc(O)cc1)NC(=O)[C@@H](N)Cc1c[nH]c2ccccc12)C(C)C)[C@@H](C)O)C(C)C)C(=O)NCC(=O)N[C@@H](CC(C)C)C(=O)N[C@@H](CCCNC(=N)N)C(=O)N[C@@H](CCCNC(=N)N)C(=O)N[C@@H](CO)C(=O)N1CCC[C@H]1C(=O)N[C@@H](Cc1ccc(O)cc1)C(=O)N[C@@H](CC(C)C)C(=O)N[C@@H](Cc1c[nH]c2ccccc12)C(=O)O [hGPR8L(1-30)] | apparently inhibited intracellular cAMP production | apparently promoted to GTPγS binding | apparently promoted GTPγS binding |
